Measured values as given in US11723897B2, “Fatty acids as anti-inflammatory agents” (University of Pittsburgh—Of the Commonwealth System of …, priority 2009, dated 2023).

System: EFAD formation in RAW264.7 cells
Test: Inhibitor study: EFAD formation in RAW264.7 cells activated with Kdo2 and IFNγ
Type: cell-based, murine
Conditions: RAW264.7 + Kdo2 + IFNγ, 20 h; ↓ decrease, ↑ increase, NE (not defined in patent)

CCCCC/C=C\C/C=C\C/C=C\C/C=C\CCCCOP(=O)(F)OC (stereo not drawn)
↓: Effect of inhibitor on EFAD-1 formation | Effect of inhibitor on EFAD-2 formation | Effect of inhibitor on EFAD-3 formation | Effect of inhibitor on EFAD-4 formation | Effect of inhibitor on EFAD-5 formation | Effect of inhibitor on EFAD-6 formation
